Results on one molecule are retold here after publication doi:10.1101/2022.07.21.500952, “Mechanistic basis for targeting homologous recombination defective liver cancer via synthetic lethality” (bioRxiv, 2022).

The target of the assay is T1, His-WDR70 (112-654 aa) (UniProt Q9NW82 112-654).
T1 construct: also called recombinant His-WDR70; recombinant WDR70
T1 sequence (looked up): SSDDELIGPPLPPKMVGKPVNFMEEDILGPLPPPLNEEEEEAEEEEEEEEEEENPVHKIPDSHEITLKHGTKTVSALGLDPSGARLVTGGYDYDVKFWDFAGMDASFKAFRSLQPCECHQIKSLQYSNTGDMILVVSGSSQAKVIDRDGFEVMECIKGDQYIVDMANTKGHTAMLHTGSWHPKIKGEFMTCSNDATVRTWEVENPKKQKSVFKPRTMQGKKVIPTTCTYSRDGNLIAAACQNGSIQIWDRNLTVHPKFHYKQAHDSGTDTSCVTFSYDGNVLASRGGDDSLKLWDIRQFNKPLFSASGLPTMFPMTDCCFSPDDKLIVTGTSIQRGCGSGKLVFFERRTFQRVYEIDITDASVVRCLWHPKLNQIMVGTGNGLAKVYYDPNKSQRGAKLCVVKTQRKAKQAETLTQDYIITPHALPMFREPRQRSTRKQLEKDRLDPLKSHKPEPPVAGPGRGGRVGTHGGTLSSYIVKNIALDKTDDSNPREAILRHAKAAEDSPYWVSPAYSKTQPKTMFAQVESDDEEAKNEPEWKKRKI
The assay is described as follows: pull-down; co-precipitation of purified recombinant His-WDR70 and Strep-PSMD5. The conditions noted are these: both partners purified.

B1: Strep-PSMD5^Hsm3 (recombinant) (natural protein, UniProt Q16401 1-504, looked up)
chain: MAAQALALLREVARLEAPLEELRALHSVLQAVPLNELRQQAAELRLGPLFSLLNENHREKTTLCVSILERLLQAMEPVHVARNLRVDLQRGLIHPDDSVKILTLSQIGRIVENSDAVTEILNNAELLKQIVYCIGGENLSVAKAAIKSLSRISLTQAGLEALFESNLLDDLKSVMKTNDIVRYRVYELIIEISSVSPESLNYCTTSGLVTQLLRELTGEDVLVRATCIEMVTSLAYTHHGRQYLAQEGVIDQISNIIVGADSDPFSSFYLPGFVKFFGNLAVMDSPQQICERYPIFVEKVFEMIESQDPTMIGVAVDTVGILGSNVEGKQVLQKTGTRFERLLMRIGHQSKNAPVELKIRCLDAISSLLYLPPEQQTDDLLRMTESWFSSLSRDPLELFRGISSQPFPELHCAALKVFTAIANQPWAQKLMFNSPGFVEYVVDRSVEHDKASKDAKYELVKALANSKTIAEIFGNPNYLRLRTYLSEGPYYVKPVSTTAVEGAE
notes: also called recombinant PSMD5^Hsm3; purified PSMD5^Hsm3; source: recombinant, purified
Consider B1, for which the binding result is “binds”.
